What is called IC50 is the midpoint of a concentration-inhibition curve.

By UniProt entry, the sequences of proteins in these tests, tags left out.
UniProt O94782, whole entry: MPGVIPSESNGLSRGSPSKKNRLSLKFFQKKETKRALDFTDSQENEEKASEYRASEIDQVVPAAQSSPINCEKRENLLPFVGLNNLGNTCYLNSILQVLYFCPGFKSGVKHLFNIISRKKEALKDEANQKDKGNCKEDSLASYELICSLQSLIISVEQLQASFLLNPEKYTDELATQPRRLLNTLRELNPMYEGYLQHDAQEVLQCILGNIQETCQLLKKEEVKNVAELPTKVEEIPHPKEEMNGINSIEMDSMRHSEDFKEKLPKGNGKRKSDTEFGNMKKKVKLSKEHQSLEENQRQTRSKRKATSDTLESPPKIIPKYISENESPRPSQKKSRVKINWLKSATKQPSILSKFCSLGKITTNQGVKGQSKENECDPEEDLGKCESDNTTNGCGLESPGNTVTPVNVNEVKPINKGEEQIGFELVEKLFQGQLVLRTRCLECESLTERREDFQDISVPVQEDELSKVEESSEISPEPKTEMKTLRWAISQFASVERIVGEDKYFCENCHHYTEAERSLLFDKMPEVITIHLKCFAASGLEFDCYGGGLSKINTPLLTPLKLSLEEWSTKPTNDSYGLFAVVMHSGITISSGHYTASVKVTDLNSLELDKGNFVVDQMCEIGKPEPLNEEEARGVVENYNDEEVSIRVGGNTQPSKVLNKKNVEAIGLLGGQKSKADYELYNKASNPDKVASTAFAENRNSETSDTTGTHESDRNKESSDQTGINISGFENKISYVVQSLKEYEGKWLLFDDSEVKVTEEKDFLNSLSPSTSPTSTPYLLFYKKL
UniProt Q8TAF3, whole entry partner: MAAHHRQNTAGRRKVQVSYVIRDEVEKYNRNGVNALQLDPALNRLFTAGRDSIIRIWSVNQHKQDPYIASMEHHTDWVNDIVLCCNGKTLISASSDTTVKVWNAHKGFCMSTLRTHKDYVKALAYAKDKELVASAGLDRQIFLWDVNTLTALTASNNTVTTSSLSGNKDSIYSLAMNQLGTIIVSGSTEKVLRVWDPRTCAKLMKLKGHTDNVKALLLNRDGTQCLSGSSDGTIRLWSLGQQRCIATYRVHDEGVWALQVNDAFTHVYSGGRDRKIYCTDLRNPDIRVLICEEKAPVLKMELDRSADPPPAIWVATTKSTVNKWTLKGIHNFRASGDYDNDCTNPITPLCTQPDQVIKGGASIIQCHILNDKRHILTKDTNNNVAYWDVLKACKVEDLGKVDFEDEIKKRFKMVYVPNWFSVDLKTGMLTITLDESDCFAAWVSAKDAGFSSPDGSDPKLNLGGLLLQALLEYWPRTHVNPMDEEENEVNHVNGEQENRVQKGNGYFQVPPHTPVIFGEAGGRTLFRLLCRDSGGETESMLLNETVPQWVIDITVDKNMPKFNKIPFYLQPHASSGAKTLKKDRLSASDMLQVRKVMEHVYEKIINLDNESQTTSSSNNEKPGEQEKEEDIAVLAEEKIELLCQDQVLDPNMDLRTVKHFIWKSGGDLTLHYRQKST

The target in this test is recombinant human His6-USP1/His6-UAF1 composite protein (Homo sapiens (Human), UniProt O94782). The test can be described thus: USP1 enzyme activity detection (Ub-Rho fluorescence). The test is classed as biochemical. The conditions noted are these: read-out: IC50 (enzymatic inhibition of USP1); USP1/UAF1, Ub-Rho substrate 300 nM, 1 hour pre-incubation.
On to `COc1nccc(C2CC2)c1-c1ncc2c3ccncc3n(Cc3ccc(-c4nc(C(F)(F)F)cn4C(C)C)cc3)c2n1`, for which the 50% inhibitory concentration (IC50) was determined as 138 nM. For the molecule `COc1ncnc(C2CC2)c1-c1ncc2c3ccc(OCCN)nc3n(Cc3ccc4c(c3)CCCn3cc(C(F)(F)F)nc3-4)c2n1`, the 50% inhibitory concentration (IC50) worked out at 1.26 nM. The value for `COc1ncnc(C2CC2)c1-c1ncc2c3ccc(C(F)(F)F)cc3n(Cc3ccc(-n4nc(C(F)(F)F)cc4C)cc3)c2n1` was 245 nM.

(Values after patent publication US20250368667A1, “USP1 INHIBITOR” (Shanghai Qilu Pharmaceutical Research and Development …, priority 2022, published 2025).)
